Measured values taken from article PMC8154177 (Circulation, 2021).

Legend:
Assay type in all cases: cell-based
[1] = target: T1, human Nav1.5 F1760L (Homo sapiens, UniProt Q14524, F1760L); assay: Whole-cell patch-clamp of recombinant Nav1.5 F1760L mutant, H2O2-induced late-INa; details: 10 µmol/L
T1 construct: host or cells: HEK293T
Protocol: (§1) The human Nav1.5 gene (SCN5A) in the pcDNA3.1(+)/C-(K)DYK vector (GenScript, Cat No. OHu18270D, USA) was cotransfected with a GFP vector into HEK293T cells using Lipofectamine 3000 (Invitrogen, Cat No. L3000001, USA). Transfected cells were seated on coverslips and used for functional studies within 48 to 72 hours. […] PCR products were cloned into XL-10 Gold Ultracompetent cells (Agilent, Cat No. 200315, USA), and DNA was isolated and purified by GeneElute Plasmid Miniprep kits (Sigma, Cat No. PLN350, USA). The presence of the desired mutations and the integrity of plasmids were then verified by DNA sequencing (The Applied Genomics Core, University of Alberta). The R1623Q LQT3 mutation in human Nav1.5 was constructed as described previously.[42]
(§2) Pipettes were pulled from borosilicate glass (World Precision Instruments, Sarasota, FL) using a P-87 micropipette puller (Sutter Instruments, Novato, CA), and the tips were fire-polished, yielding resistances of 3 to 4 MΩ. The pipette solution contained (in mmol/L) 130 CsCl, 5 NaCl, 5 TEA (tetra-ethyl ammonium chloride)-Cl, 2.5 HEPES, 1 EGTA, and 2 MgATP. The pH was adjusted to 7.2 with CsOH. The extracellular solution contained (in mmol/L) 140 NaCl, 10 HEPES, 1 CaCl2, 1.4 MgCl2, 5 KCl, and 5 glucose (pH adjusted to 7.4 with NaOH).

[2] = target: T2, human Nav1.5 Y1767L (Homo sapiens, UniProt Q14524, Y1767L); assay: Whole-cell patch-clamp of recombinant Nav1.5 Y1767L mutant, H2O2-induced late-INa; details: 10 µmol/L; not to the same extent as in WT
T2 construct: host or cells: HEK293T
Protocol: as §1, §2

[3] = target: T3, human Nav1.5 W1345L (Homo sapiens, UniProt Q14524, W1345L); assay: Whole-cell patch-clamp of recombinant Nav1.5 W1345L mutant, H2O2-induced late-INa; details: 10 µmol/L
T3 construct: host or cells: HEK293T
Protocol: as §1, §2

OC[C@H]1O[C@@H](c2ccc(Cl)c(Cc3ccc(O[C@H]4CCOC4)cc3)c2)[C@H](O)[C@@H](O)[C@@H]1O [empagliflozin]
Effect on H2O2-induced late-INa in F1760L [1]: insensitive
Effect on H2O2-induced late-INa in Y1767L [2]: significantly inhibited
Effect on H2O2-induced late-INa in W1345L [3]: insensitive
